According to PubChem BioAssay AID575 (SRMLSC, 2007):
This is a selection; strong and weak results do not stand in their true shares. Activity calls are given as the source filed them.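 Rule for the calls: active = viability at or below 30% in both replicate assays; inconclusive = viability at or below 30% in just one of the two assays; inactive = the rest.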

experiment: HUVEC growth inhibition – cell-based, human, primary screen (AID 575); settings: HUVEC proliferation, CellTiter-Glo luminescence, 72 h; at 10 µM; stronger effect = lower value;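 note: 100% = median of untreated cell wells with 0.1% DMSO on each plate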
Summary of the method: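 System – primary HUVEC, no more than 12 passages · Medium – Low-serum (2% FBS) EBM, supplemented · Times – 72 h exposure, 37 °C, 5% CO2, 30 min RT equilibration · Measured by – luminescent ATP assay · Read-out – % viability relative to median vehicle-well signal on each plate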

Q: Which viability does the source give for `COP1(=S)c2c(C)nn(CCC#N)c2N=C(c2ccc(F)cc2)N1C` (stereo not given) here?
A: Its viability is inactive: 105%.

Q: For `O=C(COc1ccccc1)OC1CN2CCC1CC2` (stereo not given), which viability is on record?
A: The viability was inactive: 100%.

Q: With `Cc1nn(-c2ccccc2)c2c1P(=O)(N1CCOCC1)N(C)C(c1ccccc1)=N2` (stereo not given) as the compound, how does the viability read?
A: Its viability is inactive: 100%.

Q: Which viability does the source give for `CCOP1(=S)c2c(C)nn(CCC#N)c2N=C(c2ccccc2F)N1C` (stereo not given) here?
A: The viability was inactive: 92.6%.

Q: Which viability does the source give for `O=P(Nc1nccs1)(c1ccccc1)c1ccccc1` here?
A: The viability was inactive: 85.2%.
